What was measured:
CYP2D6 = CYP2D6 (Homo sapiens, UniProt P10635); assay: Cytochrome P450 inhibition, Method B6; details: read-out: IC50 CYP 2D6; Table 4b; dextromethorphan used as substrate
[1] = target: GHS-R1a receptor (HEK293 cells expressing GHS-R1a receptor) (Homo sapiens, UniProt Q92847); assay: Fluorescence functional assay (ghrelin receptor), Method B2, agonist and antagonist mode; details: functional activity as an antagonist at the ghrelin receptor, Methods B2 and B3
[2] = Metabolic stability in human liver microsomes, Method B8; details: human liver microsomes 0.8 mg/mL, 5 μM compound, 37° C.
CYP3A4 = CYP3A4 (Homo sapiens, UniProt P08684); assay: Cytochrome P450 inhibition, Method B6 (two substrates); details: read-out: IC50 CYP 3A4; Table 4b; midazolam used as substrate
[3] = Plasma protein binding (equilibrium dialysis), Method B5; details: 60 min at 37° C., typically 10 μM
[4] = target: human ghrelin receptor (GRLN, growth hormone secretagogue receptor, hGHS-R1a) (Homo sapiens, UniProt Q92847); assay: Competitive radioligand binding assay (ghrelin receptor), Method B1; details: Ghrelin receptor binding activity
[5] = target: ghrelin receptor (HEK-GHSR1 stable cells) (Homo sapiens, UniProt Q92847); assay: Ghrelin receptor inverse agonist assay (HTRF IP-one), Method B4; details: read-out: IC50 (Inverse Agonist Activity), inverse agonist at the ghrelin receptor

Chains of the proteins cited; added tags and fusions are not shown.
UniProt P10635, whole entry: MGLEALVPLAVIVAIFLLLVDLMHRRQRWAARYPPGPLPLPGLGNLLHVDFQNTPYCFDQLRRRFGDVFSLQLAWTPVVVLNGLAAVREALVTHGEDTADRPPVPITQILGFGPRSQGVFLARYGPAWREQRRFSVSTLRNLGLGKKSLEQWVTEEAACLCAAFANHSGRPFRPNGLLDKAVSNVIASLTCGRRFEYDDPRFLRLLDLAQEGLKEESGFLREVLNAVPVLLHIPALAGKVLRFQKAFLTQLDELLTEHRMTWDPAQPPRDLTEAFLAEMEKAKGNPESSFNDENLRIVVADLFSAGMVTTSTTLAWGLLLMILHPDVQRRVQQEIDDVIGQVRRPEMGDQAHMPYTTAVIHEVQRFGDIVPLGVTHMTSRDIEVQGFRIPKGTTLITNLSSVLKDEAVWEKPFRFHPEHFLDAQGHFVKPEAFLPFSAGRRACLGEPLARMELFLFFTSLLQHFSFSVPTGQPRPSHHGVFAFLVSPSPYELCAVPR
UniProt Q92847, whole entry: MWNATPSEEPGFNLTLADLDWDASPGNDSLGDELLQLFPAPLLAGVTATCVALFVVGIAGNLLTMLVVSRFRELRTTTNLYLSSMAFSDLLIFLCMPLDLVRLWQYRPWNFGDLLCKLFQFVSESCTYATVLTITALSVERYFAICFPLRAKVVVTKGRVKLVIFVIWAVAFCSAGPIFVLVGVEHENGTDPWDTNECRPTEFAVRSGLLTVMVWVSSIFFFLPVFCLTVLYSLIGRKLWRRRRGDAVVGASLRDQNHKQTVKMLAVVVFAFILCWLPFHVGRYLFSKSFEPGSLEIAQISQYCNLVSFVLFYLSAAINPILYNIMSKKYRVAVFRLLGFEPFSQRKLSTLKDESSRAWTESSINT
UniProt P08684, whole entry: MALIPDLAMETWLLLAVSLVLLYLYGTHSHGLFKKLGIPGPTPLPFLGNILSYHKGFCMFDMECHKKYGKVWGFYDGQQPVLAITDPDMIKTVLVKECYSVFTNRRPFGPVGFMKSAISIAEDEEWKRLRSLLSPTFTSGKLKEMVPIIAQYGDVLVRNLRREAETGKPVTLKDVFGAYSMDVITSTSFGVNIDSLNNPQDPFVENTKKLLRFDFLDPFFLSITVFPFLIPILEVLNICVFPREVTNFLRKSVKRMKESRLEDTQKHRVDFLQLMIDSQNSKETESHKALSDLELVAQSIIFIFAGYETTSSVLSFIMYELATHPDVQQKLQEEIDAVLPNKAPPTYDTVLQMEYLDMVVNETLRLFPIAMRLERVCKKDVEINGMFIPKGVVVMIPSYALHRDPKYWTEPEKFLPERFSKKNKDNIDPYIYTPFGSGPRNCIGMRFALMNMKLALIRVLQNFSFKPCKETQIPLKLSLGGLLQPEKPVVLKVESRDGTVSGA

| Binding (%), Human Plasma Protein Binding [3] [%] | IC50 [4] [µM] | IC50 [5] [µM] | SMILES | IC50 (CYP2D6) [µM] | Antagonist Activity [1] | HLM, metabolic stability in human liver microsomes [2] [μL/min/mg protein] | IC50 (CYP3A4) [µM] |
| --- | --- | --- | --- | --- | --- | --- | --- |
| – | – | – | CC(C)[C@@H]1NCCO[C@H]2CCCC[C@H]2CCCNC(=O)[C@@H](Cc2cccc(F)c2)NC(=O)[C@H](C(C)O)N(C)C1=O (stereo partly shown) | > 20 | C (C = 10-100 nM) | 69.3 | 0.6 |
| 99.1 | 0.001 to 0.01 | 0.05 to 0.1 | CC(C)[C@@H]1NCCOc2ccccc2C#C[C@@H](C)NC(=O)[C@@H](Cc2ccc(Cl)cc2)NC(=O)[C@H](C(C)O)N(C)C1=O (stereo partly shown) | – | – | 32.8 | – |
| – | – | – | CC(O)[C@H]1C(=O)N[C@H](Cc2ccccc2)C(=O)N[C@H](C)CCc2ccccc2OCCN[C@@H](C2(C)CC2)C(=O)N1C (stereo partly shown) | > 8 | B (B = 1-10 nM) | 54.5 | 1.1 |
| – | – | – | CC(C)[C@@H]1NCCOc2ccccc2C#C[C@@H](C)NC(=O)[C@@H](Cc2c[nH]c3ccccc23)NC(=O)[C@H](C(C)O)N(C)C1=O (stereo partly shown) | > 20 | – | 23.6 | 1.5 |
| – | – | – | CC(C)[C@@H]1NCCOc2ccccc2C#C[C@@H](C)NC(=O)[C@@H](Cc2cccc(F)c2)NC(=O)[C@H](C(C)O)N(C)C1=O (stereo partly shown) | > 20 | B (B = 1-10 nM) | 13.6 | 1.4 |
